Data: PubChem BioAssay AID463082 (The Scripps Research Institute Molecular Screening Center, 2010)
This is a selection; strong and weak results do not stand in their true shares. The source made the active and inactive calls.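 Rule for the calls: active = inhibition above the mean inhibition across the screen plus 3 SD (cut at about 25% in these data); inactive = the rest.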

Amino acid sequences for entries named in this document (tags omitted). A change or cut given only in a name is not applied to a line headed by its entry.
UniProt Q13093: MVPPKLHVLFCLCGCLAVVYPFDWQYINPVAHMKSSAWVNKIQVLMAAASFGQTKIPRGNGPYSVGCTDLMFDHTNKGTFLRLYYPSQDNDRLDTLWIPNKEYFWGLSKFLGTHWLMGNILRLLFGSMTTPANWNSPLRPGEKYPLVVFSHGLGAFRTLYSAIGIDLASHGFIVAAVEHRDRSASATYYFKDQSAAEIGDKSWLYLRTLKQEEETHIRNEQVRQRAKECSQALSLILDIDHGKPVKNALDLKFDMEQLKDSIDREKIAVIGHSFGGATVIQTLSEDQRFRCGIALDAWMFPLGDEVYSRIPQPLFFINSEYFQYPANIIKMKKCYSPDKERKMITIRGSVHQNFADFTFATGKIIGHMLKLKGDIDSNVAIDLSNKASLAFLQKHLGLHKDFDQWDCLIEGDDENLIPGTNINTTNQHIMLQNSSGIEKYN

molecular target: Platelet-activating factor acetylhydrolase (Homo sapiens) (UniProt Q13093); experiment: inhibition of plasma PAF acetylhydrolase – biochemical, fluorescence polarization, human, primary screen (AID 463082); settings: recombinant pPAFAH, FP-rhodamine probe fluorescence polarization; at 3.39 µM; stronger effect = higher value;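 note: inhibitors block binding of the rhodamine activity-based probe so polarization drops; 0% = enzyme with DMSO and 100% = wells lacking pPAFAH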

SMILES | inhibition
O=[As](O)(c1ccccc1Br)c1ccccc1Br | inactive: -2.18%
COc1ccccc1CNC(=O)COC(=O)C(O)(c1ccccc1)c1ccccc1 | inactive: -1.36%
CC(C)(C)C(=O)NC(Sc1ncccn1)C(Cl)(Cl)Cl (configuration not stated) | inactive: -0.61%
Clc1n[nH]nc1-c1nn[nH][15n]1 | inactive: -0.06%
CCOP(=O)(NC(=NC(C)c1ccccc1)NC(C)c1ccccc1)OCC (configuration not stated) | inactive: 2.39%
CCC1=CC2Cc3nc4ccc(Cl)cc4c(N)c3C(C1)C2 (configuration not stated) | inactive: 6.58%
O=P1(Nc2ccccn2)COc2ccccc2OC1 | inactive: 1.72%
CCOP(=O)(Nc1ccc(C)cn1)OCC | inactive: 0.62%
CN(CCCl)Cc1cc(Cl)c(NC2=NCCN2)c(Cl)c1 | inactive: 5.43%
Nc1cccc([As](=O)(O)c2ccccc2)c1 | inactive: -2.27%
O=[As](O)(c1cccs1)c1cccs1 | inactive: 0.77%
Cc1ccc(OCC(=O)OC2CN3CCC2CC3)cc1 (configuration not stated) | inactive: -2.65%
NS(=O)(=O)c1cccc(NC(=O)COC(=O)C(O)(c2ccccc2)c2ccccc2)c1 | inactive: 6%
O=P1(Nc2ccc(Br)cn2)COc2ccccc2OC1 | inactive: 4.11%
O=P1(Nc2ncccn2)COc2ccccc2OC1 | inactive: 1.82%
CN(C)C1(CNC(=O)c2ccc(S(C)(=O)=O)cc2)CCCCC1 | inactive: 0.14%
O=C(/C=C/c1ccccc1)OC1CN2CCC1CC2 (configuration not stated) | inactive: -2.43%
Cc1ccc(C(=O)OC2CN3CCC2CC3)cc1 (configuration not stated) | inactive: 6.4%
CC1CCC(C(C)C)C(OP(=O)(Nc2ccccn2)c2ccccc2)C1 (configuration not stated) | inactive: 3.84%
Cc1nn(-c2ccccc2)c2c1P(=O)(N1CCOCC1)N(C)C(c1ccccc1)=N2 (configuration not stated) | inactive: 4.2%
Cc1cc(SC(NC=O)C(Cl)(Cl)Cl)ncn1 (configuration not stated) | inactive: -3.72%
O=P(Nc1ccccn1)(c1cccc2ccccc12)c1cccc2ccccc12 | inactive: 11.1%
CCOC(=O)Nc1cccc([As](=O)(O)O)c1 | inactive: 1.74%
Cc1cc(SC(NC(=O)c2ccccc2)C(Cl)(Cl)Cl)nc(C(C)C)n1 (configuration not stated) | inactive: 5.12%

SMILES | inhibition
CCOC(=O)Nc1ccc([As](=O)(O)O)c(O)c1 | inactive: 2.04%
CCC(C)N(CC(C)C)C(=S)SC(NC(C)=O)C(Cl)(Cl)Cl (configuration not stated) | inactive: -0.07%
O=C(OC1CN2CCC1CC2)c1cccc([N+](=O)[O-])c1 (configuration not stated) | inactive: 0.03%
CCOC(=O)c1ccc(NC(=O)C(C)(CCl)SC)cc1 (configuration not stated) | inactive: -9.61%
O=C(Nc1ccncc1[N+](=O)[O-])c1ccc([N+](=O)[O-])cc1[N+](=O)[O-] | inactive: 6.34%
O=C(COc1ccccc1)OC1CN2CCC1CC2 (configuration not stated) | inactive: 2.15%
COP1(=S)c2c(C)nn(CCC#N)c2N=C(c2ccc(F)cc2)N1C (configuration not stated) | inactive: -1.2%
COc1ccc(N/C(=N/P(=O)(N2CCOCC2)N2CCOCC2)N2CCOCC2)cc1 | inactive: 0.32%
COc1cc(I)ccc1[As](=O)(O)O | inactive: 5.87%
COc1ccc2nc(NP(=O)(c3ccccc3)c3ccccc3)sc2c1 | inactive: 1.17%
Cc1c2c(nc3ccccc13)SC(C(Cl)Cl)C2 (configuration not stated) | inactive: 0.44%
Cc1cc(=O)[nH]c(N[N+](=O)[O-])n1 | inactive: 0.16%
O=C(OC1CN2CCC1CC2)C12CC3CC(CC(C3)C1)C2 (configuration not stated) | inactive: -1.23%
O=[N+]([O-])c1cc([N+](=O)[O-])c(-c2ccn[nH]2)s1 | inactive: 10.6%
CC(C)NC(=O)NP(=O)(Oc1ccccc1)Oc1ccccc1 | inactive: -2.53%
CCN(CC)C(=S)SC(NC=O)C(Cl)(Cl)Cl (configuration not stated) | inactive: -1.24%
ClCCSc1nnc(-c2cccnc2)o1 | inactive: 4.35%
CC(C)c1ccc(OP(=O)(Nc2ccccn2)Oc2ccccc2F)cc1 (configuration not stated) | inactive: -1.84%
Cc1ccc(OP(=O)(Nc2ccc([N+](=O)[O-])cn2)Oc2ccc(C)cc2)cc1 | inactive: -0.49%
Cc1ccc2nc3c(c(C)c2c1)CC(C(Cl)Cl)S3 (configuration not stated) | inactive: 4.7%
COc1cc(C(=O)NCC2(N3CCOCC3)CCCCC2)ccc1OCC(C)C | inactive: 2.29%
C[As](=O)(O)c1cccc(C(=O)O)c1 | inactive: 1.34%
O=[As](O)(c1ccc(O)cc1)c1ccccc1O | inactive: -1.33%
